From patent US20110105397A1, “METHOD FOR TREATING HEART FAILURE WITH STRESSCOPIN-LIKE PEPTIDES” (priority 2009, published 2011)

The chains behind the UniProt entries cited, without tags or fusion partners. Residues count along the entry.
UniProt Q60748, 1-431 isoform Q60748-2: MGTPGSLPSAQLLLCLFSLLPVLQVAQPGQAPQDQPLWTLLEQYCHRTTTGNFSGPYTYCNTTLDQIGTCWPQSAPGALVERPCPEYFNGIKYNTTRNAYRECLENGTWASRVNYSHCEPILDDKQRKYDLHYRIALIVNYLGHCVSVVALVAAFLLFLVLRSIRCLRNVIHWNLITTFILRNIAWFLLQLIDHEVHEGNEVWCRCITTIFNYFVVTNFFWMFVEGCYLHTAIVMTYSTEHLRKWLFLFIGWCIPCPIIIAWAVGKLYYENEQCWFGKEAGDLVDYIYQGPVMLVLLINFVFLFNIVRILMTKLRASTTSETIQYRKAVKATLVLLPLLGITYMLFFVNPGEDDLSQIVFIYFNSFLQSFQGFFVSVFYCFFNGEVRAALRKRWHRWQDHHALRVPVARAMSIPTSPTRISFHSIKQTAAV

Columns and labels:
human CRHR2 = biological target: T1, human CRHR2 (Homo sapiens, UniProt Q13324); experiment: CRHR2 radioligand binding, [125I]-anti-sauvagine-30, SK-N-MC membranes; settings: for Ki / nH: CRHR2
T1 construct: expressed in transfected cells
T1 sequence (Q13324 1-411): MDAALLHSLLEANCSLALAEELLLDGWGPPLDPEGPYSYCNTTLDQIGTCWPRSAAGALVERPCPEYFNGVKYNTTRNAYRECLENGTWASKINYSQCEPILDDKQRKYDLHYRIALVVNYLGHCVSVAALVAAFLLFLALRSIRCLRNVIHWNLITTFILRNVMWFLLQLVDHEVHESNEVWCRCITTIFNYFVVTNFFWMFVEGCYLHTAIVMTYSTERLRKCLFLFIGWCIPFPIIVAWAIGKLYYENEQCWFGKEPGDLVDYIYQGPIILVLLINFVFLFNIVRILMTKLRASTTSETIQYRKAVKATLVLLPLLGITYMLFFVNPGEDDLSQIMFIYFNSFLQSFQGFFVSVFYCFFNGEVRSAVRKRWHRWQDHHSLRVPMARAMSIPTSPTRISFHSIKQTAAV
Experimental: The binding profile of h-SCP (SEQ ID NO:1) at CRHR2 was determined in radioligand binding studies in a membrane preparation of SK-N-MC cells stably transfected with human CRHR2 using [^125I]-anti-sauvagine-30 as the radiolabel. […] The solution was then homogenized with a Polytron tissue grinder at a setting of 10 and 7×3 s (Brinkmann Instruments, Westbury, N.Y.). […] The supernatant was re-centrifuged at 26,892×g for 25 min at 4° Celsius with the final pellet being re-suspended in assay buffer. […] For competition studies, cell membranes of […] volume were incubated with either 60 pM [^125I]-anti-sauvagine-30 in 50 μl volume for the CRHR2 assay or with)[^125I]-([…]-sauvagine for the CRHR1 assay in the presence of 15 μl of competing ligand for 120 min having a total volume of 150 μl. […] The bound radioactivity was separated by filtration using a Multiscreen Resist manifold (Millipore Corp., Billerica, Mass., U.S.A). The filters were washed three times with ice-cold PBS at pH 7.5 and radioactivity retained on the filters was quantified by its liquid scintillation measured by a TopCount counter (Packard BioScience, Boston, Mass., U.S.A). All experiments were performed in triplicate. Data from individual competition curves were expressed as the percentage of specific [^125I]-anti-sauvagine-30 or)[^125I]-([…]-sauvagine binding (B) within each experiment. […] The competition curve obtained with h-SCP (SEQ ID NO:1) was biphasic.

m-CRHR2b = m-CRHR2b (Mus musculus, UniProt Q60748); settings: m-CRHR2b transfected CHO-K1 cells (Lewis et al., 2001); cited from earlier work

| Compound | Ki (human CRHR2) [nM] | nH (human CRHR2) | competition curve / binding profile (human CRHR2; CRHR2, [125I]-anti-sauvagine-30) | Published pA50 (m-CRHR2b) |
| --- | --- | --- | --- | --- |
| CC[C@H](C)[C@H](N)C(=O)N[C@H](C(=O)N[C@@H](CC(C)C)C(=O)N[C@@H](CO)C(=O)N[C@@H](CC(C)C)C(=O)N[C@@H](CC(=O)O)C(=O)N[C@H](C(=O)N1CCC[C@H]1C(=O)N[C@H](C(=O)NCC(=O)N[C@@H](CC(C)C)C(=O)N[C@@H](CC(C)C)C(=O)N[C@@H](CCC(N)=O)C(=O)N[C@H](C(=O)N[C@@H](CC(C)C)C(=O)N[C@@H](CC(C)C)C(=O)N[C@@H](CCC(=O)O)C(=O)N[C@@H](CCC(N)=O)C(=O)N[C@@H](C)C(=O)N[C@@H](CCCNC(=N)N)C(=O)N[C@@H](C)C(=O)N[C@@H](CCCNC(=N)N)C(=O)N[C@@H](C)C(=O)N[C@@H](C)C(=O)N[C@@H](CCCNC(=N)N)C(=O)N[C@@H](CCC(=O)O)C(=O)N[C@@H](CCC(N)=O)C(=O)N[C@@H](C)C(=O)N[C@H](C(=O)N[C@H](C(=O)N[C@@H](CC(N)=O)C(=O)N[C@@H](C)C(=O)N[C@@H](CCCNC(=N)N)C(=O)N[C@H](C(=O)N[C@@H](CC(C)C)C(=O)N[C@@H](C)C(=O)N[C@@H](CCCNC(=N)N)C(=O)N[C@H](C(N)=O)C(C)C)[C@@H](C)CC)[C@@H](C)O)[C@@H](C)O)[C@@H](C)CC)[C@@H](C)CC)C(C)C)C(C)C [SEQ ID NO: 115, IVLSLDVPIGLLQILLEQARARAAREQATTNARILARV-NH2, reference compound] | 18.2 | 1.28 ± 0.15 | exhibited only high affinity binding | 9.37 |
| CC[C@H](C)[C@H](NC(=O)[C@H](CCC(N)=O)NC(=O)[C@H](C)NC(=O)[C@H](CCSC)NC(=O)[C@H](CC(C)C)NC(=O)[C@H](Cc1c[nH]cn1)NC(=O)[C@H](C)NC(=O)[C@H](CC(N)=O)NC(=O)[C@H](C)NC(=O)[C@H](C)NC(=O)[C@H](C)NC(=O)[C@H](CCC(N)=O)NC(=O)[C@H](C)NC(=O)[C@H](CCCNC(=N)N)NC(=O)[C@H](CC(C)C)NC(=O)[C@H](CC(N)=O)NC(=O)[C@H](CCCCN)NC(=O)[C@H](C)NC(=O)[C@H](CCCCN)NC(=O)[C@H](C)NC(=O)[C@@H](NC(=O)[C@H](CC(N)=O)NC(=O)[C@H](Cc1ccccc1)NC(=O)[C@H](CC(C)C)NC(=O)[C@H](CC(C)C)NC(=O)[C@H](CC(N)=O)NC(=O)[C@H](CCSC)NC(=O)[C@@H](NC(=O)[C@H](CC(N)=O)NC(=O)[C@@H](NC(=O)[C@@H]1CCCN1C(=O)[C@@H](NC(=O)[C@H](CC(=O)O)NC(=O)[C@H](CC(C)C)NC(=O)[C@H](CO)NC(=O)[C@H](CC(C)C)NC(=O)[C@@H](NC(=O)[C@@H](N)Cc1ccccc1)[C@@H](C)O)C(C)C)[C@@H](C)O)[C@@H](C)CC)[C@@H](C)CC)C(N)=O [SEQ ID NO: 116, FTLSLDVPTNIMNLLFNIAKAKNLRAQAAANAHLMAQI-NH2] | 324 | 0.68 ± 0.08 |  | 9.92^2 |
